Assays:
p110β/p85α = p110β/p85α (Homo sapiens, UniProt P42338); assay: Transcreener KINASE Assay, kinase inhibition of p110β/p85α
p110δ/p85α = p110δ/p85α (Homo sapiens, UniProt O00329); assay: Transcreener KINASE Assay, kinase inhibition of p110δ/p85α; type: biochemical

The chains behind the UniProt entries cited, without tags or fusion partners. Where a name states a change or a piece, a line headed by the entry shows the natural chain unless it says otherwise.
UniProt P42338, whole entry: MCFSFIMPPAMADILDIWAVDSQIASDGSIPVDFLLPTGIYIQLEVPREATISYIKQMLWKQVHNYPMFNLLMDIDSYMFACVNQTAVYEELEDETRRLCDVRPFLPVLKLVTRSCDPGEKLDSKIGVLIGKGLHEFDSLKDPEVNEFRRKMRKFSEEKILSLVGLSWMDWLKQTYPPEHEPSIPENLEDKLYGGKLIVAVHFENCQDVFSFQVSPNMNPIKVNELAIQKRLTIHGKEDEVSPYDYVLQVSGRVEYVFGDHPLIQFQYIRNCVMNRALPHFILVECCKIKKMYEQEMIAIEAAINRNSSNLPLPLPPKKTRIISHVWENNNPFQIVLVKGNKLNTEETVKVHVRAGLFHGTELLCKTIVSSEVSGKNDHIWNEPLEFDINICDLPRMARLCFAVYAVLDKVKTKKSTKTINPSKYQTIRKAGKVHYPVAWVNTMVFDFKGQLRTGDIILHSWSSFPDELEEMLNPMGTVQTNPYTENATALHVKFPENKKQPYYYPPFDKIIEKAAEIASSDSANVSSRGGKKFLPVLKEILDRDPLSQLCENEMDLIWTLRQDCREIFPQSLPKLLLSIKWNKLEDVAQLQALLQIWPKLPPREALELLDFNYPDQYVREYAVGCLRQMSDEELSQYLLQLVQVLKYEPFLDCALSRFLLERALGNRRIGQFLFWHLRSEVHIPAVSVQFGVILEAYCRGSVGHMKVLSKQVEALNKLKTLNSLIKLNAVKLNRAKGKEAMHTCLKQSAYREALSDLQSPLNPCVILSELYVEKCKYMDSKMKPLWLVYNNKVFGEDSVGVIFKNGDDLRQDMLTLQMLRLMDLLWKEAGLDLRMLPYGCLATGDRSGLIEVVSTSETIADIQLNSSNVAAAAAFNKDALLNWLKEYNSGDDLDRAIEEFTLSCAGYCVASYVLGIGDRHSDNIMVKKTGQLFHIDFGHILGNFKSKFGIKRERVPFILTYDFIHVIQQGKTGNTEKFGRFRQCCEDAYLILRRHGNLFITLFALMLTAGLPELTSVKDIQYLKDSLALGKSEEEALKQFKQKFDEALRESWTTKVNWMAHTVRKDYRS
UniProt O00329, whole entry: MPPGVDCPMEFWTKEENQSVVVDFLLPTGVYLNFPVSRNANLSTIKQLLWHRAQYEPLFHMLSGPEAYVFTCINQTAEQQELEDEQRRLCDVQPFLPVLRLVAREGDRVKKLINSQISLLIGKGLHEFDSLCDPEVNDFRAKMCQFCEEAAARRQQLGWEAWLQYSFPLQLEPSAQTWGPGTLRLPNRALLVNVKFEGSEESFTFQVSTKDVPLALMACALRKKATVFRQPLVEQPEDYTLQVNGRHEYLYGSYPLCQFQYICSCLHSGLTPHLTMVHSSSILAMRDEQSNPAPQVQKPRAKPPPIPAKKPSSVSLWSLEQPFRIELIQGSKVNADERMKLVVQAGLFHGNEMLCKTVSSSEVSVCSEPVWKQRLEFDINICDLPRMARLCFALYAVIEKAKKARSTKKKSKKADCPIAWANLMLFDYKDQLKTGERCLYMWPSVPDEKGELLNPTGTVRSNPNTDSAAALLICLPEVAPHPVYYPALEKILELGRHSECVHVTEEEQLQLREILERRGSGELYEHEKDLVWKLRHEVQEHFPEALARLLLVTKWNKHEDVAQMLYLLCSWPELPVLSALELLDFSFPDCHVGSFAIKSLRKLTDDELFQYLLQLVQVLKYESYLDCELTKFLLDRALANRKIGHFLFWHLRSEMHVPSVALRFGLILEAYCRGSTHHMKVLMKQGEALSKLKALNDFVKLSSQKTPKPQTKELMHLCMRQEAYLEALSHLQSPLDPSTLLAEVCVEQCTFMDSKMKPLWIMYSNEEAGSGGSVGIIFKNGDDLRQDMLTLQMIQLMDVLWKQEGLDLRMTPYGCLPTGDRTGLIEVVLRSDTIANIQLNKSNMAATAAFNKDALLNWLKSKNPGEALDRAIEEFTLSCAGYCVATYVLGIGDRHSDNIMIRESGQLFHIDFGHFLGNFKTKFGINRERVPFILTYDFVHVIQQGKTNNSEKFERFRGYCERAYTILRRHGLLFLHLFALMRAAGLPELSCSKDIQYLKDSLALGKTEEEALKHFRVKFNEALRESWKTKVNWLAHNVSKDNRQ
UniProt P27986, whole entry partner: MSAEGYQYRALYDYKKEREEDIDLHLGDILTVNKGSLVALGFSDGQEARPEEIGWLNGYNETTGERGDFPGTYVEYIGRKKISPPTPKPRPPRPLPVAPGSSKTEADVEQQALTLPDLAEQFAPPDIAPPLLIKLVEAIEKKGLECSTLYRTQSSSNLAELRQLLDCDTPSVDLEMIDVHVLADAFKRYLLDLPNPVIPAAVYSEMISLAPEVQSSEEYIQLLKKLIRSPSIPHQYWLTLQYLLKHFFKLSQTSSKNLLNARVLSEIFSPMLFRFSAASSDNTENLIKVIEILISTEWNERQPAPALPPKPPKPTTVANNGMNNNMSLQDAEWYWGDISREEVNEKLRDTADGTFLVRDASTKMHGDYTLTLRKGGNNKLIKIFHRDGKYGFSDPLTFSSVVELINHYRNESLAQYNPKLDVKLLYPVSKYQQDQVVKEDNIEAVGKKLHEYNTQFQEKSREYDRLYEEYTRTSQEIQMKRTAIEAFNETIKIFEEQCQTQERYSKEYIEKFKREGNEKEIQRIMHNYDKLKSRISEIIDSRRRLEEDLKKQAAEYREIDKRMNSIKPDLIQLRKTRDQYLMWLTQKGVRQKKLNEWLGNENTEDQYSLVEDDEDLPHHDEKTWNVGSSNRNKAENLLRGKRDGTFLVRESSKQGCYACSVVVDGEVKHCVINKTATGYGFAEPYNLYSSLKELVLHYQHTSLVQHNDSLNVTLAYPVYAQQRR

PI3Kβ IH % @ 1 uM (p110β/p85α): 22.4%
PI3Kδ IH % @ 1 uM (p110δ/p85α): 97.1%
SMILES: C[S@@+]([O-])c1c[nH]c2ncnc(N3C[C@@H](C#N)C[C@H]3c3nn4ccc(Cl)c4c(=O)n3-c3ccccc3)c12

Reference: patent publication US20150291593A1, “NOVEL HETEROARYL AND HETEROCYCLE COMPOUNDS, COMPOSITIONS AND METHODS” (HUTCHISON MEDIPHARMA LIMITED, priority 2012, published 2015)
